Values of other authors in patent US20110217713A1 (On-Q-ity, priority 2010, published 2011).

System: EGFR in NSCLC
Conditions: NSCLC patient population, unselected; cited from earlier work

COc1cc2ncnc(Nc3ccc(F)c(Cl)c3)c2cc1OCCCN1CCOCC1 [Iressa, gefitinib]
clinical trials efficacy (response for the test population): around 15%
